# Experimental data from patent publication US11512069B2, “TLR7/8 antagonists and uses thereof” (Merck Patent GmbH, priority 2016, dated 2022).
# Amino acid sequences for entries named in this document (tags omitted). Residues count along the entry.
# UniProt Q9NYK1, 27-1049 limits assumed: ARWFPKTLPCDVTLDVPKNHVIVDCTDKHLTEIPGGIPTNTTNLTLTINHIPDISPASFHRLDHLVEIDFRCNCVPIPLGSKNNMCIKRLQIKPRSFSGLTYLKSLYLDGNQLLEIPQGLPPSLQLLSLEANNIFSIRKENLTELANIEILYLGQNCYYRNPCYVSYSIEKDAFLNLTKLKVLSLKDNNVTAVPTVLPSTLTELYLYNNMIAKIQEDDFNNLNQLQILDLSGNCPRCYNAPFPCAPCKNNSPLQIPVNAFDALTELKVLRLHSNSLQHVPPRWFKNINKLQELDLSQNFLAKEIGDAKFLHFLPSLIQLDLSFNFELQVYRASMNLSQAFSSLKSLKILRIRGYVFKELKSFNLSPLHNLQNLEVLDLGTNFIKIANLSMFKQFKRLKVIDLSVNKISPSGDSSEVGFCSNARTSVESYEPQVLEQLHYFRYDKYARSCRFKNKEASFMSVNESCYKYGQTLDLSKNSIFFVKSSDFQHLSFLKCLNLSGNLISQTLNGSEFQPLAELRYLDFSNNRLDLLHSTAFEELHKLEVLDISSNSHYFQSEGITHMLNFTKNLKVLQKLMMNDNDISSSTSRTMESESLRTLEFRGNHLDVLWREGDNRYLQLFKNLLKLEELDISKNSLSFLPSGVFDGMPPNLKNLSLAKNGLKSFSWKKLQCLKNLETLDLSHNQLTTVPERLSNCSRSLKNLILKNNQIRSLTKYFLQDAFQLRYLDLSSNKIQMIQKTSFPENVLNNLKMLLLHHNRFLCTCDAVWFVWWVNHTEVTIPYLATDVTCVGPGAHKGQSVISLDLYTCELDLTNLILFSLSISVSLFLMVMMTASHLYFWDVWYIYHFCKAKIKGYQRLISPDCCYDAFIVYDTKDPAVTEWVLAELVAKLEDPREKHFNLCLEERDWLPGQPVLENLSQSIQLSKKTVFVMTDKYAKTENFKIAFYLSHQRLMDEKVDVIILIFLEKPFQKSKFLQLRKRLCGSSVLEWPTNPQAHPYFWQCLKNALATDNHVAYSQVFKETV
# pIC50: −log10 of the molar value.
# Molecular target: TLR7 (Homo sapiens, UniProt Q9NYK1)
# Experiment: HEK Cell Assay (TLR7/NFKb HEK reporter cells, Steady-Glo)
# Details: read-out: Potency, compound 30 min, then R*48 agonist 5 hours, Steady-Glo readout
# Method: Example 32: HEK Cell Assay
# Into 384 CulturePlates (Corning 3707) was placed 5000 c/w of TLR7/NFKb HEK cells in 30 uL DMEM without Phenil red (gibco #31053) and 10% i.a. FCS and 2 mM L-ZGLutamin. The cells were incubated for 24 h at 37 degrees Celsius, 10% carbon dioxide and 90% relative humidity, 3 uL of controls, standards, and compounds were dispensed to wells, incubated for 30 min then 3 uL of R*48 agonist in 20 mM Hepes was added. After incubation for 5 hours, it was allowed to stand at room temperature for 15 min, 10 uL of Steady-Glo substrate reagent was added and shake assay plate for 5 min at 1500 rpm. The assay plate was allowed to sit for 30 min at room temperature and then read plate on EnVision.
row,pIC50,SMILES
1,> 6.00,C[C@@H]1C[C@@H](c2ccc(C#N)c3ncccc23)CN(C(=O)C[C@@H]2[C@H]3CN(C)C[C@@H]23)C1 (relative stereo)
2,> 6.00,C[C@@H]1C[C@H](c2ccc(C#N)c3ncccc23)CN(C(=O)C[C@@H]2[C@H]3CN(C)C[C@@H]23)C1 (relative stereo)
